Our source for the IC50 values is patent US9403830B2, “Inhibitors of leukotriene production” (Boehringer Ingelheim International GmbH, priority 2012, dated 2016).

By UniProt entry, the sequences of proteins in these tests, tags left out.
UniProt P09960, whole entry: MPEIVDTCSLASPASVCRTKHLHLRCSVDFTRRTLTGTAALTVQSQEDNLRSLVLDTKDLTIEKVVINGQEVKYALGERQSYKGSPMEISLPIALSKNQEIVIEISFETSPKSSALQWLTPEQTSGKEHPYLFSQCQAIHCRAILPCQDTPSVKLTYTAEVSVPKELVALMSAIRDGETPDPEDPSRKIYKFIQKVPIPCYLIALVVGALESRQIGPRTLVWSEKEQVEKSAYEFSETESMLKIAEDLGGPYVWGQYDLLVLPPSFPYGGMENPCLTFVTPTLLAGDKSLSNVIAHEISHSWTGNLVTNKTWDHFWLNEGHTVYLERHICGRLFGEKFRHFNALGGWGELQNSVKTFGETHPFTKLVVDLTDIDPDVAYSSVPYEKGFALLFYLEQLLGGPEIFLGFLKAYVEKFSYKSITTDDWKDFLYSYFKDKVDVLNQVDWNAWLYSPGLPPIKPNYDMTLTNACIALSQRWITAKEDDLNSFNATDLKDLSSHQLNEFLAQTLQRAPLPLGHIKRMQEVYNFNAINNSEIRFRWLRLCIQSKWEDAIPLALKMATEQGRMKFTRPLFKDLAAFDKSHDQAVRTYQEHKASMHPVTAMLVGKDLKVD

Experiment [1] concerns LTB4 synthesis in human whole blood. The experiment in a line: human whole blood (HWB) assay, inhibition of LTB4 production. The conditions noted are these: read-out: IC50 values of LTB4 production inhibition assay in human whole blood; heparinized human whole blood, calcimycin 20 μM stimulation, plasma LTB4. The method, then:
The compounds of the invention are additionally tested in a human whole blood (HWB) assay to determine their ability to inhibit the synthesis of LTB4 in a cellular system. Compounds are combined with heparinized human whole blood and incubated for 15 minutes at 37° C. Calcimycin (20 μM final, prepared in phosphate-buffered saline, pH 7.4) is then added and the mixture is incubated for another 30 minutes at 37° C. The samples are centrifuged for 5 min at low speed (1500×g) and the plasma layer is removed. Plasma LTB4 concentrations are then measured using an antibody-based homogenous time-resolved fluorescence method (CisBio, Bedford, Mass.). In general, the preferred potency range (IC50) of compounds in the HWB assay is between 10 nM to 10 μM, the more preferred potency range is 10 nM to 1 μM, and the most preferred potency range is 10 nM to 100 nM.

The target of the next experiment is human LTA4 hydrolase (Homo sapiens, UniProt P09960). Put plainly: LTA4H Enzyme assay (peptidase, Arg-AMC cleavage). The conditions noted are these: read-out: Peptidase IC50; LTA4H enzyme 1 nM, Arg-AMC substrate 50 μM, room temperature 1 h, fluorescence 380/460 nm. The method, then:
The compounds of the invention are assessed for the ability to interact with human LTA4 hydrolase in an enzymatic assay that measures the ability of the enzyme to cleave the peptide bond of arginyl-aminomethylcoumarin (Arg-AMC). LTA4H Enzyme (1 nM final), Arg-AMC substrate (50 μM final), and compound are combined in a reaction buffer (50 mM Tris-HCl (pH 7.5), 100 mM KCl, 0.5% bovine serum albumin) at room temperature for 1 h. The formation of product is assessed by measuring the fluorescence of aminomethylcoumarin product (excitation wavelength 380 nm/emission wavelength 460 nm). In general, the preferred potency range (IC50) of compounds in the LTA4H Enzyme assay is between 0.1 nM to 10 μM, the more preferred potency range is 0.1 nM to 0.1 μM, and the most preferred potency range is 0.1 nM to 10 nM.

For the compound `O=C1CCCN1C1CCN(CCn2ncc3cc(Oc4ccc(-c5ccn[nH]5)cc4)ccc32)CC1`, the IC50 in experiment [1] was 140 nM; at human LTA4 hydrolase it was 0.33 nM.

As to `CC(=O)NC1CCN(CCn2ncc3cc(Oc4ccc(-c5ccn[nH]5)cc4)ccc32)CC1`, the IC50 in experiment [1] came to 130 nM; at human LTA4 hydrolase, 0.23 nM.

Regarding `CC(=O)N[C@@H]1CCN(CCn2ncc3cc(Oc4ccc(-c5ccn[nH]5)cc4)ccc32)C1`, the IC50 is 110 nM in experiment [1] and 0.38 nM on human LTA4 hydrolase.

`COCC(=O)NC1CCN(CCn2ncc3cc(Oc4ccc(-c5ccn[nH]5)cc4)ccc32)CC1`: the results for the IC50 (in experiment [1]; at human LTA4 hydrolase) were 190 nM and 0.61 nM, respectively.
